Molecular target: Mu-type opioid receptor (Cavia porcellus, UniProt P97266)
Assay: Agonistic activity towards Opioid receptors in the guinea pig ileum

Sequences of proteins named here, by UniProt entry; tags and fusion partners are left off.
UniProt P97266, whole entry, looked up: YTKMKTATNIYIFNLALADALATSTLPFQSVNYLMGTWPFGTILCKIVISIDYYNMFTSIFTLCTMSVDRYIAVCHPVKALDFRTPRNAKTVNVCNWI

**Q.** How did the IC50 turn out when CC[C@H](C)[C@H](NC(=O)[C@H](CCCNC(=N)N)NC(=O)[C@H](CCCNC(=N)N)NC(=O)[C@H](CC(C)C)NC(=O)[C@H](Cc1ccccc1)NC(=O)[C@@H](C)NC(=O)CNC(=O)[C@@H](N)Cc1ccc(O)cc1)C(=O)N[C@@H](CCCNC(=N)N)C(=O)N1CCC[C@H]1C(=O)N[C@@H](CCCCN)C(N)=O was run?
**A.** Its IC50 is 2.4 nM.
